# Experimental data as given in ChEMBL document CHEMBL5223088, “EP2 Antagonists (2011-2021): A Decade's Journey from Discovery to Therapeutics” (J Med Chem, 2021).
# Experiment: in vivo
# Conditions: C57BL/6, mouse, brain, ip, 5 mg/kg
structure (smiles),measurement,value
COc1cc(/C=C/C(=O)NCCn2c(C(F)(F)F)cc3ccccc32)cc(OC)c1OC,Kp,1.6
